# Measured affinities in a library of Ab-14 heavy chain variants

Reference: Li et al. 2023, doi:10.1038/s41467-023-39022-2. File: FLAb, binding data.

Target peptide (SARS-CoV-2 spike, HR2 region): PDVDLGDISGINAS

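Designed CDR sequences, proposed from the first random library and measured here. Group labels follow the data file (En: ensemble of fine-tuned language models; HC: hill climbing; Gen: genetic algorithm; Gibbs: Gibbs sampling; a sequence that several methods proposed may carry one label only). The assay is AlphaSeq: two haploid yeast populations carry antibody and antigen on their surface. The frequency of each diploid, read from paired DNA barcodes, reflects how well the two displayed proteins bind. The ratio of observed to expected reads was calibrated, replicate by replicate, on BCL2-family standards whose Kd was known from biolayer interferometry. There are six technical replicates.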

Parent: Ab-14, a human scFv built as VH, a 15-residue (Gly4Ser)3 linker, VL. Only the CDRs of the heavy chain vary.
VH: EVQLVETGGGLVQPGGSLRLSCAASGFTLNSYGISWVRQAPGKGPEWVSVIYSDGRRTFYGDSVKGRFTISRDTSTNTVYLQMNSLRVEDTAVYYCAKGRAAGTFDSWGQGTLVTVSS
VL: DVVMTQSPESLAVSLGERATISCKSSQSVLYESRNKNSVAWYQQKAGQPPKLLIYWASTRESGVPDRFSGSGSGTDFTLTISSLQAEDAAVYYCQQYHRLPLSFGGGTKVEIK

Each variant is given by its three heavy chain CDRs, as the data file delimits them; those of the parent are GFTLNSYGIS, VIYSDGRRTFYGDSVK, GRAAGTFDS. Variants here have more than six changes. Values are log10 of the apparent Kd in nM; lower means stronger binding. A mean of the replicates is given; it leaves out those without a signal. A pair that was not seen in that replicate is written "ND"; this usually means weak binding, but a binder can also be missed. A sequence measured in both rounds can read differently, since the two assays cover different ranges. The authors' rule: three or more of the six replicates give a measured affinity, fewer mean a poor binder. Background: pairings of all heavy chain designs with three empty control strains gave a value in 1% of cases (median 2.08, 5th percentile 0.84). Values in that range, when seen in few replicates, are hard to tell from nonspecific mating. The parent sequence was in this pool as ten entries: three were never detected, three once, and four in most replicates, with averages from 0.34 to 2.37.

Variant GFDLNEYGIS, VIYADGRRTFYSDSVK, GEIAGTFVQ [En_HC] showed 1.05, 0.37, -0.03, -0.03, 0.44, 0.28 (mean 0.35).
Variant GFDLLEYGIS, VIYADGQRVAYKNNVK, GKNGATFSN [En_Gibbs] showed ND, ND, ND, ND, ND, ND.
Variant GFDLDEYGIS, VIYADGVRTAYSDSVK, GENAGTFDT [En_Gen] showed 0.02, -0.46, -0.38, -0.80, 0.06, 0.51 (mean -0.17).
Variant GFDLNEYGIS, VIYADGMRTAYTDSVK, GTNAGTFDV [En_Gen] showed -0.53, -0.37, -0.67, -0.99, -0.81, -0.51 (mean -0.65).
Variant GDGLEEYGIS, VIYADGMRESYVNDVK, GQKSGIFNL [En_Gibbs] showed ND, ND, ND, ND, ND, ND.
Variant GFGLDEYGIS, VIYADGMRSAYANSVK, GAHAGGIVW [En_Gibbs] showed ND, ND, ND, ND, ND, ND.
Variant GFDLDEYGIS, VIYADGRRTAYADSVK, GNQAGTFDV [En_Gen] showed -0.30, -0.20, -0.48, -0.54, -0.42, -0.19 (mean -0.35).
Variant GFDINEYGVS, VIYADGMRSYYAGKVK, GSEGALFDV [En_Gibbs] showed ND, ND, ND, ND, ND, ND.
Variant GFDLNEYGIS, VIYADGRRTYYADSVK, GEIAGTFDV [En_HC] showed -0.18, -0.34, -0.35, -0.67, -0.54, -0.12 (mean -0.37).
Variant GFDLEEYGIS, VIYADGMRTAYADSVK, GQNAGTFDV [En_Gen] showed -0.38, -0.70, -0.87, -0.81, -0.86, -0.23 (mean -0.64).
Variant GFDINEYGIS, VIYADGRREAYAESVK, GFNQTGWGV [En_Gibbs] showed ND, ND, ND, ND, ND, ND.
Variant GFDLNEYGIS, VIYADGKRTFYADSVK, GQVAGTFDI [En_HC] showed -0.21, -0.36, -0.53, -0.50, -0.20, -0.30 (mean -0.35).
Variant GFDLDEYGIS, VIYADGRRTFYADSVK, GETAGTFDW [En_HC] showed -0.06, -0.72, -0.79, -0.58, -0.67, -0.21 (mean -0.51).
Variant GFDLDEYGIS, VIYADGRRTAYADSVK, GNTAGTFDL [En_Gen] showed -0.69, -0.68, -0.57, -0.59, -0.66, -0.33 (mean -0.59).
Variant GFDLNEYGIS, VIYADGMRTAYIDSVK, GEAAGTFDK [En_HC] showed 0.18, 0.22, 0.20, 0.86, 0.17, 1.05 (mean 0.44).
Variant GFDLNEYGIS, VIYADGKRTAYLQNVK, GEVAGFDQY [En_Gibbs] showed ND, ND, ND, ND, ND, ND.
Variant GFDIEEYGIS, VIYADGQRTMYTPNVK, GNITGLAMT [En_Gibbs] showed ND, ND, ND, ND, 0.77, ND.
Variant GFDLDEYGIS, VIYADGMRTAYSDSVK, GTNAGTFDL [En_Gen] showed -0.10, -0.63, -0.56, -0.56, -0.43, -0.20 (mean -0.41).
Variant GKLLDEYGIS, VIYADGMRMVYAPSVK, GNLTDTLLV [En_Gibbs] showed ND, ND, ND, ND, ND, ND.
Variant GESLEEYGIS, VIYADGIREQYVDDVK, GEQGGYFVV [En_Gibbs] showed ND, ND, ND, ND, ND, ND.
Variant GFDLDEYGIS, VIYADGKRTAYSDSVK, GNNAGTFDI [En_Gen] showed 0.54, 0.88, 0.32, 0.46, 0.30, 0.92 (mean 0.57).
Variant GDGLKEYGIS, VIYADGMREAYVKDVK, GQTAGTFVL [En_Gibbs] showed ND, ND, ND, ND, ND, ND.
Variant GFNLNEYGIS, VIYADGMRTFYSDSVK, GEQAGTFDV [En_HC] showed -0.14, -0.21, -0.33, -0.26, -0.23, -0.03 (mean -0.20).
Variant GFDIDEYGIS, VIYADGRRTFYADSVK, GTNAGTFDA [En_HC] showed ND, ND, ND, ND, ND, ND.
Variant GFDINEYGIS, VIYADGIRTVYANKFK, GDSGGIINF [En_Gibbs] showed ND, ND, ND, ND, ND, ND.
Variant GFDLNEYGIS, VIYADGRRTFYTDSVK, GAFAGTFDV [En_HC] showed -0.52, -0.72, -0.75, -0.79, -0.87, -0.32 (mean -0.66).
Variant GENLEEYGIS, VIYADGIREQYTDDVK, GEQGGYFVT [En_Gibbs] showed ND, ND, ND, ND, ND, ND.
Variant GFDLESYGIS, VIYADGRRKAYHDSVK, GTNGSVSFV [En_Gibbs] showed ND, ND, ND, ND, ND, ND.
Variant GFDLNEYGIS, VIYADGRRTFYADSVK, GEAAGTFLV [En_HC] showed -0.63, 0.31, -0.19, 0.89, -0.13, 0.20 (mean 0.07).
Variant GFDLNEYGIS, VIYADGKRTAYADKVK, GNVAGTFDL [En_Gen] showed 0.23, -0.37, -0.49, -0.41, -0.34, -0.38 (mean -0.29).
Variant GFDLDEYGVS, VIYADGHRAQYTEDVK, GTNSGAVDM [En_Gibbs] showed ND, ND, ND, ND, ND, ND.
Variant GFDLNEYGIS, VIYADGTRKSYADNVK, GDYHSVVSY [En_Gibbs] showed ND, ND, ND, ND, ND, ND.
Variant GFDLDEYGIS, VIYADGVRTAYTDSVK, GTNAGTFDV [En_Gen] showed -0.65, -0.76, -0.65, -0.83, -0.97, -0.60 (mean -0.74).
Variant GFDLNEYGIS, VIYADGVRTAYSDSVK, GVNAGTFDV [En_Gen] showed -0.74, -0.57, -0.64, -0.71, -0.51, -0.34 (mean -0.58).
Variant GFSLDEYGIS, VIYADGIRRVYIDKVK, GNYGGDFIE [En_Gibbs] showed ND, ND, ND, ND, ND, ND.
Variant GQSLDDYGIS, VIYADGQRKAAVDEVK, GEVAGTLDI [En_Gibbs] showed ND, ND, ND, ND, ND, ND.

From the list, the first 4 with no signal in any replicate:

CDR-H1,CDR-H2,CDR-H3,group,log10 Kd (nM) by replicate,mean log10 Kd (nM)
GFDLLEYGIS,VIYADGQRVAYKNNVK,GKNGATFSN,En_Gibbs,"ND, ND, ND, ND, ND, ND",ND
GDGLEEYGIS,VIYADGMRESYVNDVK,GQKSGIFNL,En_Gibbs,"ND, ND, ND, ND, ND, ND",ND
GFGLDEYGIS,VIYADGMRSAYANSVK,GAHAGGIVW,En_Gibbs,"ND, ND, ND, ND, ND, ND",ND
GFDINEYGVS,VIYADGMRSYYAGKVK,GSEGALFDV,En_Gibbs,"ND, ND, ND, ND, ND, ND",ND